## scFv variants of Ab-14 (heavy chain) against a SARS-CoV-2 spike peptide

Binding partner: SARS-CoV-2 spike HR2 peptide, sequence PDVDLGDISGINAS.

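Phage display of a naive human antibody library on the peptide gave the parent. AAYL49 was designed without a model: most single CDR substitutions and a random sample of double and triple ones. In AlphaSeq, yeast of one mating type display the scFv and yeast of the other type display the target. The frequency of each diploid, read from paired DNA barcodes, reflects how well the two displayed proteins bind. The ratio of observed to expected reads was calibrated, replicate by replicate, on BCL2-family standards whose Kd was known from biolayer interferometry. The assay was run in three technical replicates.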

Parent scFv Ab-14: VH joined to VL by three GGGGS repeats. Changes lie in the heavy chain CDRs alone.
VH: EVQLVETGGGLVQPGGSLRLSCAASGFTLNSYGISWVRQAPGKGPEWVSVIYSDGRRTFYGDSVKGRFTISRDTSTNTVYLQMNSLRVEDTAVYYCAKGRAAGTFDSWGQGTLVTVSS
VL: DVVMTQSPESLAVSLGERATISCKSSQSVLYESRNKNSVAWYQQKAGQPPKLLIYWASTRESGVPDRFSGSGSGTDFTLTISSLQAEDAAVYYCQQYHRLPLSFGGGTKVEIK

Changes read parent residue, position, new residue, counted from the first residue of the VH shown.
These are single substitutions, in order of position.
Values are apparent Kd, the geometric mean of the replicates that gave a signal; lower means stronger binding.
"nd" means that the variant was in the library but no mating with the target was seen in any replicate; the authors take this as a sign of poor binding, and no number exists.
Parent in this assay: reference entry 4.4 nM, copy in this library 13 µM (one replicate of three).
Three control strains display no target. For library AAYL49, 15% of the pairings with them gave a signal, with a median of 11 µM and one signal in twenty below 680 nM, so weak values seen in few replicates may be background.

changes	Kd	detected
S63I	2.1 µM	3 of 3
V64L	nd	0 of 3
V64D	nd	0 of 3
V64Q	1.4 µM	1 of 3
V64E	nd	0 of 3
V64W	4.7 µM	2 of 3
V64F	15 nM	3 of 3
V64I	150 µM	3 of 3
V64M	440 nM	1 of 3
V64Y	120 nM	1 of 3
V64H	5.4 µM	1 of 3
V64T	1.2 µM	1 of 3
V64G	nd	0 of 3
V64N	nd	0 of 3
V64K	nd	0 of 3
V64C	150 nM	3 of 3
V64S	340 nM	3 of 3
V64R	nd	0 of 3
V64A	27 nM	3 of 3
K65W	380 nM	3 of 3
K65S	49 nM	3 of 3
K65R	120 µM	2 of 3
K65D	nd	0 of 3
K65H	890 nM	3 of 3
K65P	nd	0 of 3
K65Q	96 nM	3 of 3
K65T	150 nM	3 of 3
K65L	99 nM	3 of 3
K65Y	32 nM	3 of 3
K65E	3.3 nM	3 of 3
K65M	160 nM	3 of 3
K65G	81 nM	3 of 3
K65I	17 nM	3 of 3
K65F	3.1 µM	1 of 3
K65V	84 nM	3 of 3
K65N	12 nM	3 of 3
K65A	36 nM	3 of 3
G99W	39 nM	3 of 3
G99S	460 µM	1 of 3
G99C	24 nM	3 of 3
G99M	nd	0 of 3
G99T	12 nM	3 of 3
G99P	17 µM	2 of 3
G99K	120 µM	2 of 3
G99R	30 nM	3 of 3
G99H	5.8 µM	1 of 3
G99I	7.7 µM	1 of 3
G99L	3.7 nM	3 of 3
G99Y	32 nM	3 of 3
G99A	nd	0 of 3
G99Q	nd	0 of 3
G99V	nd	0 of 3
G99E	1.7 µM	1 of 3
G99N	nd	0 of 3
R100D	nd	0 of 3
R100P	8.7 nM	3 of 3
R100A	4.2 nM	3 of 3
R100Q	22 µM	2 of 3
R100F	25 nM	3 of 3
R100S	13 nM	3 of 3
R100T	4.1 µM	2 of 3
R100C	70 nM	3 of 3
R100Y	56 nM	3 of 3
R100V	nd	0 of 3
R100M	13 nM	3 of 3
R100W	4.1 nM	3 of 3
R100K	4.2 nM	3 of 3
R100G	60 nM	3 of 3

A selection of 8 entries from above:

| changes | Kd | detected |
|---|---|---|
| G99Y | 32 nM | 3 of 3 |
| G99C | 24 nM | 3 of 3 |
| K65Y | 32 nM | 3 of 3 |
| K65D | nd | 0 of 3 |
| V64I | 150 µM | 3 of 3 |
| K65M | 160 nM | 3 of 3 |
| K65I | 17 nM | 3 of 3 |
| K65L | 99 nM | 3 of 3 |

Source: Engelhart et al. 2022 (doi:10.1038/s41597-022-01779-4), MIT Lincoln Laboratory and A-Alpha Bio; data file from the FLAb repository.